Test system: male Carworth Farms #1 mice
Assay: Rotorod Test (Tox), neurologic toxicity
Format: in vivo
Conditions: Median Toxic Dose, comparison drugs

CCC1(c2ccccc2)C(=O)NC(=O)NC1=O [phenobarbital]
Tox TD50: 69 mg/kg

From patent EP0263506B1, “Anticonvulsant composition containing amino acid derivative and use of said amino acid derivative” (priority 1986, dated 1988)
